In PubChem BioAssay AID488839 (Broad Institute, 2010):
Only a part is listed here, and it is no random draw. Some salts and complexes are drawn in separate pieces, as the source files them; their charges need not balance. Active and inactive are the calls of the source.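 How the source made its calls: active means highest replicate inhibition of at least 50% and at least 75% of replicates reaching 50%; inconclusive means only one of the two criteria met; inactive means both criteria failed.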

Sequences of proteins named here, by UniProt entry; tags and fusion partners are left off.
UniProt Q00535, whole entry, looked up: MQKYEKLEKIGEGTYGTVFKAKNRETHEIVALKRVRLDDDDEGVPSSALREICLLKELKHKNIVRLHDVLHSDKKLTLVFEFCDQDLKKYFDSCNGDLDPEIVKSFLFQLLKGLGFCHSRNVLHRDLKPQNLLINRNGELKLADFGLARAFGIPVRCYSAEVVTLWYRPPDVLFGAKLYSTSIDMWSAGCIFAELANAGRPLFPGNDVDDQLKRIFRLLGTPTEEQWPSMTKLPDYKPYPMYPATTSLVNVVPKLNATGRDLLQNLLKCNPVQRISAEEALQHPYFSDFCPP
UniProt Q15078, whole entry, looked up: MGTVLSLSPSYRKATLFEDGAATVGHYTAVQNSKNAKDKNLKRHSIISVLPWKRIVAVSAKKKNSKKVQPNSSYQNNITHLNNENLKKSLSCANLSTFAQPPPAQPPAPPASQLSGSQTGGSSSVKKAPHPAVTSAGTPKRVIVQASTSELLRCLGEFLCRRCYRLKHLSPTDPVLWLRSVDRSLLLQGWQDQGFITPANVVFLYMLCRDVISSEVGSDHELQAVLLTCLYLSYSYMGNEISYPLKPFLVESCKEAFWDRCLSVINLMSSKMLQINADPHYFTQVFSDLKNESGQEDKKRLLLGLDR

These compounds were tested against Cyclin-dependent kinase 5 (Homo sapiens) + Cyclin-dependent kinase 5 activator 1 (Homo sapiens) (UniProt Q00535+Q15078) (assay: CDK5/p35 phosphotransfer blockade – biochemical, single concentration, primary screen (AID 488839;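 further: plate controls were DMSO neutral control for no effect and GW8510 at 10 µM for full effect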)). Conditions: Recombinant CDK5/p35, ADP-Glo luminescence, 60 min; at 10 µM; active compounds read high.

Row | Compound | inhibition
1 | O=[N+]([O-])c1cc([N+](=O)[O-])c(-c2cnn(-c3ccccc3)c2)c([N+](=O)[O-])c1 | inactive: -8.43%
2 | Cc1nc2ccc3ccccc3c2s1.O=[N+]([O-])c1cc([N+](=O)[O-])c(O)c([N+](=O)[O-])c1 | inactive: 0.962%
3 | O=[N+]([O-])c1cc([N+](=O)[O-])c(-n2nnc3ccccc32)c([N+](=O)[O-])c1 | inactive: 0.368%
4 | CN1CCCCC1COC(=O)C1(O)c2ccccc2CCc2ccccc21 (centres undefined) | inactive: -1.13%
5 | COc1ccccc1OP(C)(=O)Nc1c(C)cccc1C (centres undefined) | inactive: -0.781%
6 | CP(=O)(Nc1ccc(SC(F)(F)F)cc1)Oc1ccccc1 (centres undefined) | inactive: 1.33%
7 | CCCOc1ccc(NP(C)(=O)Oc2ccc(Cl)cc2)cc1 (centres undefined) | inactive: -0.168%
8 | O=[N+]([O-])c1cc([N+](=O)[O-])c(Nc2nnnn2CCO)c([N+](=O)[O-])c1 | inactive: 1.12%
9 | CC1=C2N=C(C=C3N=C(C(C)=C4[N-][C@@](C)([C@@H]5N=C1[C@](C)(CCC(=O)NC[C@@H](C)OP(=O)([O-])O[C@H]1[C@@H](O)[C@@H](n6cnc7cc(C)c(C)cc76)O[C@@H]1CO)[C@H]5CC(N)=O)[C@@](C)(CC(N)=O)[C@@H]4CCC(N)=O)[C@@](C)(CC(N)=O)[C@@H]3CCC(N)=O)C(C)(C)[C@@H]2CCC(N)=O.[C-]#N.[Co+3] | inactive: 1.59%
10 | CCOC(=O)C(CC)C1=NC(C)(C)Cc2ccccc21.O=[N+]([O-])c1cc([N+](=O)[O-])c(O)c([N+](=O)[O-])c1 (centres undefined) | inactive: -2.6%
11 | CC1=NCCc2c1[nH]c1ccccc21.O=[N+]([O-])c1cc([N+](=O)[O-])c(O)c([N+](=O)[O-])c1 | inactive: 0.0737%
12 | O=C(O)c1cccc(Nc2c([N+](=O)[O-])cc([N+](=O)[O-])cc2[N+](=O)[O-])c1 | inactive: -0.499%
13 | CP(=O)(Nc1cccc(Br)c1)Oc1ccccc1 (centres undefined) | inactive: -0.725%
14 | Cc1cc(C)cc(OP(C)(=O)Nc2ccccn2)c1 (centres undefined) | inactive: 0.608%
15 | Cc1ccc(C)c(NP(C)(=O)Oc2ccccc2)c1 (centres undefined) | inactive: 0.335%
16 | COc1ccccc1OP(C)(=O)Nc1cccc(Br)c1 (centres undefined) | inactive: 1.17%
17 | Cc1cc(C)cc(OP(C)(=O)Nc2ccc(C)cc2C)c1 (centres undefined) | inactive: -0.994%
18 | CCOC(=O)c1ccc(NP(C)(=O)Oc2cc(C)cc(C)c2)cc1 (centres undefined) | inactive: -1.83%
19 | CCN(CC)CCCOC(=O)C(O)(c1ccccc1)c1ccccc1 | inactive: 0.0604%
20 | COc1ccccc1OP(C)(=O)Nc1ccc(C)cc1 (centres undefined) | inactive: -1.21%
21 | Cc1ccc(NP(C)(=O)Oc2ccccc2)c(C)c1 (centres undefined) | inactive: -0.223%
22 | COc1ccccc1OP(C)(=O)Nc1cc(Cl)ccc1C (centres undefined) | inactive: -0.501%
23 | COc1ccc(OP(C)(=O)Nc2cccc(F)c2)cc1 (centres undefined) | inactive: 2.4%

Row | Compound | inhibition
24 | Cc1cc(C)cc(OP(C)(N)=O)c1 (centres undefined) | inactive: -2.34%
25 | O=[N+]([O-])c1cc([N+](=O)[O-])c(Nc2cccnc2)c([N+](=O)[O-])c1 | inactive: 1.23%
26 | CC(C)(C)c1ccc(OP(C)(=O)Nc2ccc(SC(F)(F)F)cc2)cc1 (centres undefined) | inactive: -4.52%
27 | Cc1cccc(C)c1OP(C)(N)=O (centres undefined) | inactive: 1.15%
28 | O=[N+]([O-])c1ccc2c(c1)C=Nc1ccccc1O2 | inactive: 0.125%
29 | CP(=S)(Nn1cnnc1)Oc1ccccc1 (centres undefined) | inactive: 0.569%
30 | COc1ccccc1OP(C)(=O)Nc1ccccc1 (centres undefined) | inactive: 0.271%
31 | CP(=O)(Nc1ccccc1Br)Oc1ccccc1 (centres undefined) | inactive: 0.481%
32 | CCOP(C)(=S)SCC(=O)NC(C)C(=O)O (centres undefined) | inactive: -0.387%
33 | CCOC(=O)c1ccc(NP(C)(=O)Oc2ccc(OC)cc2)cc1 (centres undefined) | inactive: 0.647%
34 | CP(=O)(Nc1ccccn1)Oc1ccc(Cl)cc1 (centres undefined) | inactive: -0.519%
35 | Cc1cccc(C)c1OP(C)(=O)Nc1ccc(SC(F)(F)F)cc1 (centres undefined) | inactive: 0.932%
36 | CP(=O)(Oc1ccccc1)OC(c1ccccc1)C(F)(F)F (centres undefined) | inactive: 1.19%
37 | CCc1ccc(OP(C)(=O)N2CCN(c3ccc([N+](=O)[O-])cc3)CC2)cc1 (centres undefined) | inactive: -2.92%
38 | CP(=O)(NC(=O)Nc1ccccc1)Oc1ccccc1 (centres undefined) | inactive: 7.25%
39 | Cc1cc(C)cc(OP(C)(=O)Nc2ccc(SC(F)(F)F)cc2)c1 (centres undefined) | inactive: 0.399%
40 | CP(=O)(Nc1ccc(Cl)cc1)Oc1ccc(F)cc1 (centres undefined) | inactive: 1.68%
41 | CC(C)(C)c1ccc(OP(C)(=O)O)cc1 | inactive: -2.23%
42 | COc1ccccc1OP(C)(=O)Nc1ccccc1Br (centres undefined) | inactive: -1.75%
43 | CN(C)C(=O)c1c([N+](=O)[O-])cc([N+](=O)[O-])cc1[N+](=O)[O-] | inactive: -0.251%
44 | CCN(CC)CC(O)COC(=O)C(O)(c1ccccc1)C1CCCCC1 (centres undefined) | inactive: 1.98%
45 | COc1ccc(OP(C)(=O)Nc2ccc(Br)cc2)cc1 (centres undefined) | inactive: -5.38%
46 | CP(=O)(Oc1ccccc1)N1CCOC1=O (centres undefined) | inactive: 1.38%

Row | Compound | inhibition
47 | CCc1ccc(OP(C)(=O)Nc2cccnc2)cc1 (centres undefined) | inactive: 0.748%
48 | COc1ccccc1OP(C)(=O)Nc1c(C)n(C)n(-c2ccccc2)c1=O (centres undefined) | inactive: -0.363%
49 | O=C(OCCCN1CCCC1)C(O)(c1ccccc1)C1CCCCC1 (centres undefined) | inactive: -1.25%
50 | CP(=O)(OC12CC3CC(CC(C3)C1)C2)OC12CC3CC(CC(C3)C1)C2 | inactive: 0.785%
51 | CCOC(=O)c1ccc(NP(C)(=O)Oc2ccc(Cl)cc2)cc1 (centres undefined) | inactive: -0.127%
52 | CP(=O)(OCCOc1ccccc1)OCCOc1ccccc1 | inactive: 2.17%
53 | CCCCCCCCCCCCCCCC1C[N+](C)(C)CCOP(C)(=O)O1 (centres undefined) | inactive: 0.669%
54 | CP(=O)(Nc1ccc(Cl)cc1Cl)Oc1ccccc1 (centres undefined) | inactive: -0.325%
55 | O=C1C(O)=C([N+](=O)[O-])C(=O)C(O)=C1[N+](=O)[O-] | inactive: -0.986%
56 | Cc1cc(C)cc(OP(C)(=O)Nc2cccc(C(F)(F)F)c2)c1 (centres undefined) | inactive: -0.481%
57 | COc1ccc(OP(C)(=O)Nc2ccccc2Br)cc1 (centres undefined) | inactive: 2.53%
58 | COc1ccccc1OP(C)(=O)Nc1ccc(C)c(C)c1 (centres undefined) | inactive: 2.23%
59 | O=[N+]([O-])c1cc([N+](=O)[O-])c(Nc2ccccn2)c([N+](=O)[O-])c1 | inactive: -0.209%
60 | Cc1c(NP(C)(=O)Oc2ccc(C(C)C)cc2)c(=O)n(-c2ccccc2)n1C (centres undefined) | inactive: 0.678%
61 | CCc1ccc(OP(C)(=O)O)cc1 | inactive: -0.765%
62 | CP(=O)(Nc1ccccn1)Oc1ccccc1 (centres undefined) | inactive: -0.93%
63 | COc1ccccc1OP(C)(=O)Nc1ccc(C)cc1C (centres undefined) | inactive: 0.572%
64 | COc1ccccc1OP(C)(=O)Nc1ccc(Br)cc1 (centres undefined) | inactive: -0.923%
65 | CN(C)CCOC(=O)C(O)(c1ccccc1)C1CCCC1 (centres undefined) | inactive: -1.02%
66 | COc1ccc(OP(C)(=O)Nc2ccccn2)cc1 (centres undefined) | inactive: 2.44%
67 | O=C(OCCN1CCN(CCOCc2ccccc2)CC1)C(O)(c1ccccc1)c1ccccc1 | inactive: 0.31%
68 | O=C(OC1CN2CCC1CC2)c1ccc([N+](=O)[O-])cc1 (centres undefined) | inactive: -1.04%
69 | COc1ccc2c(c1O)-c1c(O)c(OC)cc3c1[C@H](C2)[N+](C)(C)CC3.O=[N+]([O-])c1cc([N+](=O)[O-])c([O-])c([N+](=O)[O-])c1[O-] | inactive: -0.196%

Row | Compound | inhibition
70 | CC(C)c1ccc(OP(C)(=O)Nc2ccc(SC(F)(F)F)cc2)cc1 (centres undefined) | inactive: -0.519%
71 | CP(=O)(Nc1ccccc1F)Oc1ccccc1 (centres undefined) | inactive: 0.328%
72 | CCN(CC)CCCOC(=O)C(O)(c1ccccc1)C1CCCCC1 (centres undefined) | inactive: 0.431%
73 | Cc1c([N+](=O)[O-])cc([N+](=O)[O-])c(Br)c1[N+](=O)[O-] | inactive: -7.78%
74 | CCCCCOc1ccc(NP(C)(=O)Oc2ccc(Cl)cc2Cl)cc1 (centres undefined) | inactive: 0.526%
75 | O=[N+]([O-])c1cc([N+](=O)[O-])c(OC2CCCCC2O)c([N+](=O)[O-])c1 (centres undefined) | inactive: -5.13%
76 | CP(=O)(Nc1ccccc1)Oc1ccc(F)cc1 (centres undefined) | inactive: -1.17%
77 | COc1ccc(OP(C)(=O)Nc2ccc(SC(F)(F)F)cc2)cc1 (centres undefined) | inactive: -2.49%
78 | CCOC(=O)c1ccc(NP(C)(=O)Oc2ccc(F)cc2)cc1 (centres undefined) | inactive: 0.627%
79 | Cc1cc(-c2cccc3ccccc23)c(C)cn1.O=[N+]([O-])c1cc([N+](=O)[O-])c(O)c([N+](=O)[O-])c1 | inactive: -0.164%
80 | O=[N+]([O-])c1cc([N+](=O)[O-])c(NCC2CCS(=O)(=O)C2)c([N+](=O)[O-])c1 (centres undefined) | inactive: -0.987%
81 | O=[N+]([O-])c1ccc(OP2(=O)COCCO2)cc1 (centres undefined) | inactive: 0.145%
82 | Cc1c(C(c2ccc3c(c2)OCO3)c2c(C)n(C)n(-c3ccccc3)c2=O)c(=O)n(-c2ccccc2)n1C.O=[N+]([O-])c1cc([N+](=O)[O-])c(O)c([N+](=O)[O-])c1 | inactive: -7.19%
83 | COc1ccc(OP(C)(=O)Nc2cccc(Br)c2)cc1 (centres undefined) | inactive: -0.769%
84 | COc1ccc(NP(C)(=O)Oc2ccccc2OC)cc1 (centres undefined) | inactive: -0.582%
85 | CN(C)CCOC(=O)C(O)(c1ccccc1)C1CCCCC1 (centres undefined) | inactive: 0.00694%
86 | CP(=O)(Nc1ccc2c(c1)OCCO2)Oc1ccccc1 (centres undefined) | inactive: 0.106%
87 | Cc1ccccc1NP(C)(=O)Nc1ccccc1C | inactive: 1.14%
88 | CP(=O)(Nc1ccc(SC(F)(F)F)cc1)Oc1ccc(F)cc1 (centres undefined) | inactive: 1.15%
89 | CCOP(C)(=S)SCC(=O)NC(C)(CC)C(=O)O (centres undefined) | inactive: 0.847%
